Experiment: Absorption of No. 363,586 with or without alcohol-lysine esters in rats, percent bioavailability versus intravenous (Example 7)
Settings: 0.1 mg No. 363,586 ± 5.0 mg alcohol-lysine ester, 250 μl, pH 6, versus intravenous

Substance: cyclo-(N-Ala-Tyr-D-Trp-Lys-Val-Phe)acetate [No. 363,586]
- Percent No. 363,586 Bioavailability (mean ± SE), Duodenal (duodenal): 1%
- Percent No. 363,586 Bioavailability (mean ± SE), Rectal (rectal): 7 ± 3.5%

Source: patent publication US4749694A, “Novel lysine esters used as absorption” (Merck & Co., Inc., priority 1984, dated 1988)
